Experimental data reported in patent US6346389B1, “Method for selectively modulating the interactions between survivin and tubulin” (Yale University, priority 1998, dated 2002).

System: NIH3T3 cells
Experiment: Apoptosis assay in transfected NIH3T3 cells treated with taxol
Type: cell-based, mouse
Conditions: transient transfection, taxol treatment
Method: Apoptosis assay. Subconfluent cultures of NIH3T3 fibroblasts in 6-well tissue culture plates were co-transfected with 1 μg of lacZ reporter plasmid and 4 μg of various cDNA constructs, including Survivin, bcl-2, XIAP and coil-less Survivin, or control empty vector pcDNA3 using LipofectAMINE, as described above. Forty-eight hours after transfection, cells were fixed in 2% paraformaldehyde for 1 h and stained for β-galactosidase expression with 0.5 mg/ml 5-bromo-4-chloro-3-indolyl β-D-galactoside (Amersham), 5 mM potassium ferrocyanide, 5 mM potassium ferricyanide and 2 mM MgCl2 in PBS. β-Galactosidase-expressing cells were scored morphologically on an inverted microscope. In another series of experiments, BaF3 cells stably transfected with wild type or mutated Survivin constructs were washed, seeded in 96-well plates at 5×10^5/ml and cell viability was determined microscopically by trypan blue exclusion at increasing time intervals following IL-3 withdrawal, as described previously (Ambrosini, 1997).

Q: For XIAP: transfected XIAP cDNA in pcDNA3, which “Protection from taxol-induced apoptosis compared with pcDNA3 vector control” value is on record?
A: increased viability
